Laboratory results taken from ChEMBL document CHEMBL2062462, “Thiophene bioisosteres of spirocyclic σ receptor ligands: relationships between substitution pattern and σ receptor affinity” (J Med Chem, 2012).

Assay: Selectivity index, ratio of Ki for guinea pig brain sigma1 receptor to Ki for rat liver sigma2 receptor

Work on `c1ccc(CN2CCC3(CC2)OCCc2sccc23)cc1` yielded a Ratio Ki of 42.
